Measured values reported in US4269857A, “Control of plant-virus diseases” (Kureha Kagaku Kogyo Kabushiki Kaisha, priority 1978, dated 1981).

Tested on: tobacco mosaic virus (TMV)
Assay: Inhibition of local lesion formation by TMV, half-leaf method on kidney bean primary leaves
Assay type: in vivo, tobacco mosaic virus on kidney bean plants (variety: Otebo)
Conditions: read-out: Evaluation (rate of inhibition of lesion spot formation)
Description: The followings are the test results of the compounds of the present invention in the plant virus disease-controlling experiments. In the experiments one of the compounds of the present invention was formulated as in the above-mentioned Example 3 and after diluting the formulated composition with water to a predetermined concentration.
In this test, the inhibiting action of the compound of the present invention against the formation of local lesion due to the infection of tobacco mosaic virus (TMV) was examined by the half-leaf method using primary leaves of kedny been plants (variety: Otebo). TMV was inoculated on the primary leaf of kedney been plant, and just after the inoculation, the diluted liquid of the compound was painted on the half surface of the leaf and water was painted on the other half surface of the leaf. The concentration of the compounds of the present invention in the liquid was 500 ppm, and the inoculum was adjusted to form about 50 topical lesion spots on the half surface of the leaf painted with water (control). Ten leaves were usually used for the evaluation of one compound, and the rate of inhibition of lesion spot formation was derived from the following formula: [formula]
The thus obtained rates of inhibition were evaluated according to the following criteria: […]

For CCCNC[C@H](O)[C@@H](O)[C@H](O)[C@H](O)CO [Compound 1], the inhibition at 500 ppm was 70 to 90%.
